From paper PMC9645260, “Small-molecule inhibitors of P-Rex guanine-nucleotide exchange factors” (Small GTPases, 2022)

The chains behind the UniProt entries cited, without tags or fusion partners.
UniProt Q8TCU6, whole entry: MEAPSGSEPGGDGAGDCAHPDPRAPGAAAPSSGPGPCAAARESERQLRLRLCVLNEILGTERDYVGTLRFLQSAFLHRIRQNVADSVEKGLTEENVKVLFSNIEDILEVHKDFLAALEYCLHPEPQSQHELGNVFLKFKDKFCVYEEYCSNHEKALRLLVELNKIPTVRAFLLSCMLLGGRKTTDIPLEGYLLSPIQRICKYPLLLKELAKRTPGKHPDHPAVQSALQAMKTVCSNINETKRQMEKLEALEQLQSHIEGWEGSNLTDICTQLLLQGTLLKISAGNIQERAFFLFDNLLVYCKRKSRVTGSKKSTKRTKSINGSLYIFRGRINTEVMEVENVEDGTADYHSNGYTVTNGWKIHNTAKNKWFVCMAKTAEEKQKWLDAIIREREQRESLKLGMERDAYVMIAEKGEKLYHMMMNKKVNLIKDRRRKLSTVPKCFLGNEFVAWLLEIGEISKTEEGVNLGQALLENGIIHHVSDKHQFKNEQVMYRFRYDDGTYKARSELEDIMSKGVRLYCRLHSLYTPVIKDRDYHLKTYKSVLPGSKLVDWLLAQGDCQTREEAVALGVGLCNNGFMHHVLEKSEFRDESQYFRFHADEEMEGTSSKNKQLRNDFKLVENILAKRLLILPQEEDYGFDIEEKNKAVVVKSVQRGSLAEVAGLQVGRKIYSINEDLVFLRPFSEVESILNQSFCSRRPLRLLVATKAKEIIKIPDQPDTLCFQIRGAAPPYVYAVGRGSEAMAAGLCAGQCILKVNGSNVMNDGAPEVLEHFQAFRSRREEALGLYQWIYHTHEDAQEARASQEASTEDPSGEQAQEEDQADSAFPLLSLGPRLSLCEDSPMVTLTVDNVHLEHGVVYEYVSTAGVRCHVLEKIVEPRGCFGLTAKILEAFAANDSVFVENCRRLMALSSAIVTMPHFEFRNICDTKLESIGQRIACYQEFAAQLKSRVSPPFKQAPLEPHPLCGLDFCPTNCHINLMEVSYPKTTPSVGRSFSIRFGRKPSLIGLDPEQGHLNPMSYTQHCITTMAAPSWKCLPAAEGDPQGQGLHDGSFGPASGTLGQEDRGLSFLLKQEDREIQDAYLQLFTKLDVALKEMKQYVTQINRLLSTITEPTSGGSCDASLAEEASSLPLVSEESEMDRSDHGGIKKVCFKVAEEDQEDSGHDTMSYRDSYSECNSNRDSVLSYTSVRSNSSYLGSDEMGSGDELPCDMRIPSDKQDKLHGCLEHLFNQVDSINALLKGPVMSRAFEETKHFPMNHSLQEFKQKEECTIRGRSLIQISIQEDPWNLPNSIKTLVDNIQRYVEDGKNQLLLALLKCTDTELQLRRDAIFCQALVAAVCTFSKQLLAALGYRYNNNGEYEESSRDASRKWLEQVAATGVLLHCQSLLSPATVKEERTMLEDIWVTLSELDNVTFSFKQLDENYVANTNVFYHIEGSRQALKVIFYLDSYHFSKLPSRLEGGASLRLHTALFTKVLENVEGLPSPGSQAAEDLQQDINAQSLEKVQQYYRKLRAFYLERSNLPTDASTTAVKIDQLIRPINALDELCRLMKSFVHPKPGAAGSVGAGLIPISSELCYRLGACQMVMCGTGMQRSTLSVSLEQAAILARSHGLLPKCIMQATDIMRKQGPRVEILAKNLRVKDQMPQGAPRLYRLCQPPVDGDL

Experiments:
Tiam1 = tested on: Tiam1; set-up: method as in PMID 11595749; conditions: cited from earlier work
full-length P-Rex1 = molecular target: T1, full-length P-Rex1 (Homo sapiens, UniProt Q8TCU6); test: Liposome-based GEF activity assay, PIP3-stimulated full-length P-Rex1; assay type: biochemical; conditions: pilot experiment, 37 nM prenylated EE-Rac1; read-out: IC50 on Rac-GEF activity of P-Rex1
T1 construct: Full-length N-terminally EE-tagged P-Rex1, P-Rex2, the P-Rex1 DH and DHPH domains and the P-Rex2 DH domain were produced in Sf9 cells; made in house; host or cells: Sf9 cells (baculovirus)
Excerpt: All small GTPases and GEFs used were human recombinant proteins. EE-Rac1, EE-Rac2, GST-Cdc42 or GST-RhoA were expressed in Sf9 cells by baculoviral transduction and purified using their epitope tag in their post-translationally prenylated form using Triton X-114 phase separation, essentially as previously described. Briefly, frozen pellets from a 1 litre culture of Sf9 cells transduced with high-titre baculovirus expressing the small GTPase were resuspended in ice-cold Sf9-cell lysis buffer 1 (1x PBS, 40 mM HEPES pH 7.5 at RT, 5 mM MgCl2, 10 mM EGTA, 300 µM GDP, 1 mM DTT, 200 µM PMSF, 20 μg/ml each of leupeptin, pepstatin A, aprotinin and antipain) and lysed by sonication. Triton X-114 was added (to 1% final concentration), and samples were ultracentrifuged at 118,000 × g for 50 min at 4°C. The supernatant was warmed at 37°C until cloudy (30–60 seconds) and centrifuged at 1300 × g for 2 min at 37°C. The upper phase containing non-lipid modified GTPase was discarded and replaced with ice-cold Sf9-cell lysis buffer. The warming/centrifugation steps were repeated twice and lipid-modified GTPase resuspended in ice-cold Sf9-cell lysis buffer 1 supplemented with Triton X-100 (1% final concentration), followed by ultracentrifugation at 118,000 × g for 50 min at 4°C. […] Protein concentration and purity was determined by coomassie staining of SDS-PAGE gels. […]

Trio-N = tested on: Trio-N; set-up: method as in PMID 11595749; conditions: cited from earlier work

SMILES: CSCC[C@H](N)C(=O)N[C@H](C(=O)N[C@@H](CC(=O)O)C(=O)NCC(=O)N[C@@H](CCCCN)C(=O)N1CCC[C@H]1C(=O)N[C@H](C(=O)N[C@@H](CC(N)=O)C(=O)N[C@@H](CC(C)C)C(=O)NCC(=O)N[C@@H](CC(C)C)C(=O)N[C@@H](Cc1c[nH]c2ccccc12)C(=O)N[C@@H](CC(=O)O)C(=O)N[C@H](C(=O)N[C@@H](C)C(=O)NCC(=O)O)[C@@H](C)O)C(C)C)C(C)C [W56 peptide]
- concentration blocking the interaction of Rac1 with Tiam1 (Tiam1): above 200 µM
- IC50 (full-length P-Rex1): ~250 µM
- concentration blocking the interaction of Rac1 with Trio-N (Trio-N): above 200 µM
